This note sets out measurements from patent publication US20250195530A1, “POLQ INHIBITORS” (ASTRAZENECA AB, priority 2022, published 2025).

Sequences of proteins named here, by UniProt entry; tags and fusion partners are left off. Residues count along the entry.
UniProt O75417, 1780-2590: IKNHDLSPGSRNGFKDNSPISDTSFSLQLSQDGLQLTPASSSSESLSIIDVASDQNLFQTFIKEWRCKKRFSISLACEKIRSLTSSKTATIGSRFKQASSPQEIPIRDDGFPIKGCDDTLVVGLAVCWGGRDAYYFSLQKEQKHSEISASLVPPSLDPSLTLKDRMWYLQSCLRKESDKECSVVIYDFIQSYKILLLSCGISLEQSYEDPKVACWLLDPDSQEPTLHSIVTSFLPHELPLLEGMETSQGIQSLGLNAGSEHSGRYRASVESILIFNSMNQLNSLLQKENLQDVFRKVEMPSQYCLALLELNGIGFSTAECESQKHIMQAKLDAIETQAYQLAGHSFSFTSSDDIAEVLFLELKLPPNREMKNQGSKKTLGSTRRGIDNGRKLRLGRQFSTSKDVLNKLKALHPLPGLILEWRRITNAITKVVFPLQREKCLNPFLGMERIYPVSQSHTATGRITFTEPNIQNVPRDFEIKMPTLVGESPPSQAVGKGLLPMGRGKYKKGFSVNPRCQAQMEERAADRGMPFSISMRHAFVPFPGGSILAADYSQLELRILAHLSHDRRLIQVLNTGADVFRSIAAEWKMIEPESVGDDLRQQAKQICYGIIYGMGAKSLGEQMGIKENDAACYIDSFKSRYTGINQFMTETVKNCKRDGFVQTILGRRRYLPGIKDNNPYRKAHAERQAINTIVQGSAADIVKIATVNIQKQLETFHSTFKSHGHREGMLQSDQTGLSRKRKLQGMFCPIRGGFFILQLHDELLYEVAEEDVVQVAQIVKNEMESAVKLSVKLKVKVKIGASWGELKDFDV

The structures appear in SMILES notation.

The target of this test is isolated polymerase domain (I1780-V2590) of DNA polymerase theta (Polθ) (Homo sapiens (Human), UniProt O75417). Kind of test: biochemical.

Broadly, the IC50 is the concentration that inhibits the measured activity by half. Low readings indicate higher potency, high ones lower potency. `Cc1ccnc(Cn2c(-c3ccc(S(N)(=O)=O)cc3Cl)nc3c(OC4(C)CC4)ncnc32)c1` [Example T9, 3-chloro-4-(6-(1-methylcyclopropoxy)-9-((4-methylpyridin-2-yl)methyl)-9H-purin-8-yl)benzenesulfonamide] had an IC50 of 10 nM. Under `CCc1nnc(Cn2c(-c3ccc(CC(N)=O)cc3Cl)nc3c(OC4(C)CC4)ncnc32)o1` [Example T10, 2-(3-chloro-4-(9-((5-ethyl-1,3,4-oxadiazol-2-yl)methyl)-6-(1-methylcyclopropoxy)-9H-purin-8-yl)phenyl)acetamide] stands 2000 nM. Under `CC1(Oc2ncnc3c2nc(-c2ccc(C(=O)O)cc2Cl)n3Cc2cccc(Cl)c2)CC1` [Example T11, 3-chloro-4-(9-(3-chlorobenzyl)-6-(1-methylcyclopropoxy)-9H-purin-8-yl)benzoic acid] stands 7.94 nM; under `CC1(Oc2ncnc3c2nc(-c2cccc(C(=O)O)c2Cl)n3Cc2cccc(Cl)c2)CC1` [Example T12, 2-chloro-3-(9-(3-chlorobenzyl)-6-(1-methylcyclopropoxy)-9H-purin-8-yl)benzoic acid], 10 nM. Under `Cc1ccnc(Cn2c(-c3ccc(C(=O)O)cc3Cl)nc3c(OC4(C)CC4)ncnc32)c1` [Example T13, 3-chloro-4-(6-(1-methylcyclopropoxy)-9-((4-methylpyridin-2-yl)methyl)-9H-purin-8-yl)benzoic acid] stands 6.31 nM; under `Cc1ccnc(Cn2c(-c3ccc(C(N)=O)cc3Cl)nc3c(OC4(C)CC4)ncnc32)c1` [Example T14, 3-chloro-4-(6-(1-methylcyclopropoxy)-9-((4-methylpyridin-2-yl)methyl)-9H-purin-8-yl)benzamide], 6.31 nM. The compound `CC1(Oc2ncnc3c2nc(-c2ccc(OCCO)cc2Cl)n3Cc2cc(Cl)ccn2)CC1` [Example T15, 2-(3-chloro-4-(9-((4-chloropyridin-2-yl)methyl)-6-(1-methylcyclopropoxy)-9H-purin-8-yl)phenoxy)ethan-1-ol] had an IC50 of 10 nM. Consider `Cc1ccnc(Cn2c(-c3ccc(S(C)(=O)=O)cc3Cl)nc3c(OC4(C)CC4)ncnc32)c1` [Example T16, 8-(2-chloro-4-(methylsulfonyl)phenyl)-6-(1-methylcyclopropoxy)-9-((4-methylpyridin-2-yl)methyl)-9H-purine], for which it took 12.6 nM to reach half-maximal inhibition (IC50). Under `Cc1nnccc1Cn1c(-c2ccc(CC(N)=O)cc2Cl)nc2c(OC3(C)CC3)ncnc21` [Example T17, 2-(3-chloro-4-(6-(1-methylcyclopropoxy)-9-((3-methylpyridazin-4-yl)methyl)-9H-purin-8-yl)phenyl)acetamide] stands at least 10000 nM. Under `Cc1cnnc(Cn2c(-c3ccc(CC(N)=O)cc3Cl)nc3c(OC4(C)CC4)ncnc32)c1` [Example T18, 2-(3-chloro-4-(6-(1-methylcyclopropoxy)-9-((5-methylpyridazin-3-yl)methyl)-9H-purin-8-yl)phenyl)acetamide] stands 200 nM.

The compound `Cc1cc(Cn2c(-c3ccc(CC(N)=O)cc3Cl)nc3c(OC4(C)CC4)ncnc32)ncn1` [Example T19, 2-(3-chloro-4-(6-(1-methylcyclopropoxy)-9-((6-methylpyrimidin-4-yl)methyl)-9H-purin-8-yl)phenyl)acetamide] gave an IC50 of 631 nM. Under `CC1(Oc2ncnc3c2nc(-c2ccc(CC(N)=O)cc2Cl)n3Cc2nnc(C3CC3)s2)CC1` [Example T20, 2-(3-chloro-4-(9-((5-cyclopropyl-1,3,4-thiadiazol-2-yl)methyl)-6-(1-methylcyclopropoxy)-9H-purin-8-yl)phenyl)acetamide] stands 25.1 nM.

With `CC1(Oc2ncnc3c2nc(-c2ccc(CC(N)=O)cc2Cl)n3Cc2nnc(C3CC3)o2)CC1` [Example T21, 2-(3-chloro-4-(9-((5-cyclopropyl-1,3,4-oxadiazol-2-yl)methyl)-6-(1-methylcyclopropoxy)-9H-purin-8-yl)phenyl)acetamide], the IC50 was 501 nM.

Take `COc1cnnc(Cn2c(-c3ccc(CC(N)=O)cc3Cl)nc3c(OC4(C)CC4)ncnc32)c1` [Example T22, 2-(3-chloro-4-(9-((5-methoxypyridazin-3-yl)methyl)-6-(1-methylcyclopropoxy)-9H-purin-8-yl)phenyl)acetamide]: the IC50 was 631 nM.

The compound `CC1(Oc2ncnc3c2nc(-c2ccc(CC(N)=O)cc2Cl)n3Cc2nc(C3CC3)no2)CC1` [Example T23, 2-(3-chloro-4-(9-((3-cyclopropyl-1,2,4-oxadiazol-5-yl)methyl)-6-(1-methylcyclopropoxy)-9H-purin-8-yl)phenyl)acetamide] had an IC50 of 79.4 nM. Under `Cc1nc(Cn2c(-c3ccc(CC(N)=O)cc3Cl)nc3c(OC4(C)CC4)ncnc32)sc1C` [Example T24, 2-(3-chloro-4-(9-((4,5-dimethylthiazol-2-yl)methyl)-6-(1-methylcyclopropoxy)-9H-purin-8-yl)phenyl)acetamide] stands 12.6 nM; under `Cc1nc(C)c(Cn2c(-c3ccc(CC(N)=O)cc3Cl)nc3c(OC4(C)CC4)ncnc32)s1` [Example T25, 2-(3-chloro-4-(9-((2,4-dimethylthiazol-5-yl)methyl)-6-(1-methylcyclopropoxy)-9H-purin-8-yl)phenyl)acetamide], 79.4 nM; under `Cc1ncsc1CCn1c(-c2ccc(CC(N)=O)cc2Cl)nc2c(OC3(C)CC3)ncnc21` [Example T26, 2-(3-chloro-4-(6-(1-methylcyclopropoxy)-9-(2-(4-methylthiazol-5-yl)ethyl)-9H-purin-8-yl)phenyl)acetamide], 5010 nM. As for `Cc1noc(C)c1Cn1c(-c2ccc(CC(N)=O)cc2Cl)nc2c(OC3(C)CC3)ncnc21` [Example T27, 2-(3-chloro-4-(9-((3,5-dimethylisoxazol-4-yl)methyl)-6-(1-methylcyclopropoxy)-9H-purin-8-yl)phenyl)acetamide], the figure is 6310 nM; as for `CNC(=O)COc1ccc(-c2nc3c(OC4(C)CC4)ncnc3n2Cc2ncc(C)s2)c(Cl)c1` [Example T28, 2-(3-chloro-4-(6-(1-methylcyclopropoxy)-9-((5-methylthiazol-2-yl)methyl)-9H-purin-8-yl)phenoxy)-N-methylacetamide], 10 nM; as for `Cc1ccnc(Cn2c(-c3ccc(NS(C)(=O)=O)cc3Cl)nc3c(OC4(C)CC4)ncnc32)c1` [Example T29, N-(3-chloro-4-(6-(1-methylcyclopropoxy)-9-((4-methylpyridin-2-yl)methyl)-9H-purin-8-yl)phenyl)methanesulfonamide], 10 nM.

Take `CNS(=O)(=O)c1ccc(-c2nc3c(OC4(C)CC4)ncnc3n2Cc2cc(C)ccn2)c(Cl)c1` [Example T30, 3-chloro-N-methyl-4-(6-(1-methylcyclopropoxy)-9-((4-methylpyridin-2-yl)methyl)-9H-purin-8-yl)benzenesulfonamide]: half-maximal inhibition (IC50) required 15.8 nM. Under `Cc1cnn(C)c1Cn1c(-c2ccc(CC(N)=O)cc2Cl)nc2c(OC3(C)CC3)ncnc21` [Example T31, 2-(3-chloro-4-(9-((1,4-dimethyl-1H-pyrazol-5-yl)methyl)-6-(1-methylcyclopropoxy)-9H-purin-8-yl)phenyl)acetamide] stands 794 nM. As for `Cc1cc(Cn2c(-c3ccc(CC(N)=O)cc3Cl)nc3c(OC4(C)CC4)ncnc32)n(C)n1` [Example T32, 2-(3-chloro-4-(9-((1,3-dimethyl-1H-pyrazol-5-yl)methyl)-6-(1-methylcyclopropoxy)-9H-purin-8-yl)phenyl)acetamide], the figure is 631 nM; as for `Cc1nn(C)cc1Cn1c(-c2ccc(CC(N)=O)cc2Cl)nc2c(OC3(C)CC3)ncnc21` [Example T33, 2-(3-chloro-4-(9-((1,3-dimethyl-1H-pyrazol-4-yl)methyl)-6-(1-methylcyclopropoxy)-9H-purin-8-yl)phenyl)acetamide], 501 nM. As for `CNCCOc1ccc(-c2nc3c(OC4(C)CC4)ncnc3n2Cc2ncc(C)s2)c(Cl)c1` [Example T34, 2-(3-chloro-4-(6-(1-methylcyclopropoxy)-9-((5-methylthiazol-2-yl)methyl)-9H-purin-8-yl)phenoxy)-N-methylethan-1-amine], half-maximal inhibition (IC50) was put at 12.6 nM. In turn, `CC1(Oc2ncnc3c2nc(-c2ccc(CC(N)=O)cc2Cl)n3Cc2ccnc(C(F)(F)F)c2)CC1` [Example T35, 2-(3-chloro-4-(6-(1-methylcyclopropoxy)-9-((2-(trifluoromethyl)pyridin-4-yl)methyl)-9H-purin-8-yl)phenyl)acetamide] had an IC50 of 39.8 nM. `CC1(Oc2ncnc3c2nc(-c2ccc(CC(N)=O)cc2Cl)n3Cc2cc(C(F)(F)F)ccn2)CC1` [Example T36, 2-(3-chloro-4-(6-(1-methylcyclopropoxy)-9-((4-(trifluoromethyl)pyridin-2-yl)methyl)-9H-purin-8-yl)phenyl)acetamide] showed an IC50 of 7.94 nM. As for `CC1(Oc2ncnc3c2nc(-c2ccc(CC(N)=O)cc2Cl)n3Cc2cccnc2C(F)(F)F)CC1` [Example T37, 2-(3-chloro-4-(6-(1-methylcyclopropoxy)-9-((2-(trifluoromethyl)pyridin-3-yl)methyl)-9H-purin-8-yl)phenyl)acetamide], the figure is 251 nM; as for `CC1(Oc2ncnc3c2nc(-c2ccc(CC(N)=O)cc2Cl)n3Cc2ccc(C(F)(F)F)nc2)CC1` [Example T38, 2-(3-chloro-4-(6-(1-methylcyclopropoxy)-9-((6-(trifluoromethyl)pyridin-3-yl)methyl)-9H-purin-8-yl)phenyl)acetamide], 126 nM. As for `CC1(Oc2ncnc3c2nc(-c2ccc(CC(N)=O)cc2Cl)n3Cc2cncc(C#N)c2)CC1` [Example T39, 2-(3-chloro-4-(9-((5-cyanopyridin-3-yl)methyl)-6-(1-methylcyclopropoxy)-9H-purin-8-yl)phenyl)acetamide], the figure is 50.1 nM; as for `CC1(Oc2ncnc3c2nc(-c2ccc(CC(N)=O)cc2Cl)n3Cc2ccnc(C#N)c2)CC1` [Example T40, 2-(3-chloro-4-(9-((2-cyanopyridin-4-yl)methyl)-6-(1-methylcyclopropoxy)-9H-purin-8-yl)phenyl)acetamide], 79.4 nM; as for `CC1(Oc2ncnc3c2nc(-c2cccc(OCC(=O)O)c2Cl)n3Cc2cccc(Cl)c2)CC1` [Example T41, 2-(2-chloro-3-(9-(3-chlorobenzyl)-6-(1-methylcyclopropoxy)-9H-purin-8-yl)phenoxy)acetic acid], 6.31 nM.
